Test results reported in patent publication US5672707A (priority 1991, dated 1997).

Assays:
Assay type in all cases: in vivo
[1] = test system: membranes of brain synaptosomes; assay: Microviscosity of brain synaptosome membranes, old rats; conditions: old rats (18 month), 20 days application
Procedure: Microviscosity of membranes of brain synaptosomes was studied with the use of molecular probe pirren. Brain tissue homogenization and preparation of synaptosomes were performed by the method of De Robertis.
Improvement of animal performance was accompanied by the normalizing of brain synaptosomes microviscosity under the action of all the substances tested. […] The latter observation indicates to the possible interference of amiridine and substance Vo into the processes of atherogenesis in old animals.

[2] = test system: membranes of brain synaptosomes; assay: Microviscosity of brain synaptosome membranes, amnestic syndrome model; conditions: rats, scopolamine 20 days, then drug 10 days
brain synaptosomes = assay: Cholesterol content in brain synaptosomes, old rats; conditions: old rats (18 month), 20 days application

NC(=O)CN1CCCC1=O [Piracetam, piracetam, reference compound]
Microviscosity changes (% to control) [1]: 101.8 % to control | Microviscosity changes in % to control [2]: 102.6 % to control | Cholesterol content in synaptosomes (% from total lipid content) (brain synaptosomes): 35.1 ± 1.0 % from total lipid content
